The list shows a part of the results, in another mix than the full data. The source made the active and inactive calls.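 Rule for the calls: active = inhibition at 20 µM, scaled per plate between control wells, above about 37% (limit read from the data); inactive = the rest.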

Protein sequences, listed by entry. Tags and fused reporters are not part of them.
UniProt P54829, whole entry: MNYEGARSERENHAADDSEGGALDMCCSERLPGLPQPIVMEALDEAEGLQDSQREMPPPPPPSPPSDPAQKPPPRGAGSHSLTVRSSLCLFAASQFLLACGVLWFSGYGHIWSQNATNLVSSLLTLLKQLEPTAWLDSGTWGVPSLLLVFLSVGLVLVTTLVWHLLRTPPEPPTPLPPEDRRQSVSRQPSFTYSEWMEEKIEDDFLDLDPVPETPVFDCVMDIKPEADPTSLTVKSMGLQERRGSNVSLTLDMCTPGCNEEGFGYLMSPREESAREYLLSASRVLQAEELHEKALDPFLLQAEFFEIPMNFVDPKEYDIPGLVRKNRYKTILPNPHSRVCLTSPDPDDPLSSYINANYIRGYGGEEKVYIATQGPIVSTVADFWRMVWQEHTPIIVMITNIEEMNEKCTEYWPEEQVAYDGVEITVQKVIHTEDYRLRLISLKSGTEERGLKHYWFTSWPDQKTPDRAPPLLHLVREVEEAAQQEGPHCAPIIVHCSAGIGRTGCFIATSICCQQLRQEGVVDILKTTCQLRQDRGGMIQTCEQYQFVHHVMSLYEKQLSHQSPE

By inhibition is commonly meant the drop in the measured response relative to a control, in per cent.

The assay concerns the target Tyrosine-protein phosphatase non-receptor type 5 (Homo sapiens) (UniProt P54829). The experiment in a line: inhibition of human PTPN5 enzyme activity – biochemical, fluorescence intensity, uHTS, primary screen (AID 588621).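 Note: 0% = DMSO with enzyme and substrate and 100% = substrate only without enzyme.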 As to conditions: recombinant STEP, OMFP fluorogenic substrate, at 20 µM, active compounds read high. A digest of the protocol: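 Measure: Control-normalized % inhibition with plate pattern correction | Test system: STEP phosphatase, cell-free reaction | Medium: pH 6.0 Bis-Tris with DTT and Tween 20 | Technique: Fluorescence, 480/540 nm | Times: Reaction 20 min, ambient temperature | Doses: Single compound dose of 20 µM, 1% DMSO final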
For `CCC(=O)N(c1ccccc1)C1(COC)CCN(CCc2cccs2)CC1`, the inhibition was inactive: 1.6%.
As for `CCC(=O)N(c1ccccc1)C1(COC)CCN(CCn2nnn(CC)c2=O)CC1`, the inhibition is inactive: -1.5%.

Source of the values: PubChem BioAssay AID588621 (Sanford-Burnham Center for Chemical Genomics, 2011).
